# Assay results as given in publication PMC3893112 (Journal of medicinal chemistry, 2013).
# By UniProt entry, the sequences of proteins in these tests, tags left out. Where a name states a change or a piece, a line headed by the entry shows the natural chain unless it says otherwise.
# UniProt P41145: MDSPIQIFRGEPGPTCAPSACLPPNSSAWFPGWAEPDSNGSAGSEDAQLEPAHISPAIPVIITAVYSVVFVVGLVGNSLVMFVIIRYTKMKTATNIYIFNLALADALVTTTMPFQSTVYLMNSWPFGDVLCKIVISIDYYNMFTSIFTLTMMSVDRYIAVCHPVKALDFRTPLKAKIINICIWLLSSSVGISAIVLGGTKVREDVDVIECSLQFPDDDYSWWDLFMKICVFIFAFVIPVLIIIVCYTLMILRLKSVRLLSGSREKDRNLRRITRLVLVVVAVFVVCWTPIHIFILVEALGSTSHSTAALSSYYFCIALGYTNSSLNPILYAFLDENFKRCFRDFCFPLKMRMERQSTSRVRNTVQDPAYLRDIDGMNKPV
# What was measured:
# [1] = molecular target: human κ opioid receptor over-expressed in CHO cells (Homo sapiens, UniProt P41145); assay: Inhibition of κ agonist-stimulated [35S]GTPγS binding; format: biochemical
# [2] = molecular target: human δ opioid receptor over-expressed in CHO cells (Homo sapiens, UniProt P41143); assay: Inhibition of DPDPE-stimulated [35S]GTPγS binding; format: biochemical
compound,measurement,setting,value
"C[C@@H]1CN(CCCc2ccccc2)[C@@H]2CCC[C@]1(c1cccc(O)c1)C2.Cl [Compound 4, 3-[(1R,4S,5S)-4-Methyl-2-(3-phenylpropyl)-2-azabicyclo[3.3.1]non-5-yl]phenol]",Kb,[1],12.9 ± 2.5 nM
same,"Antagonist κ, U50,488 Ke",[1]; vs κ agonist-stimulated [35S]GTPγS binding,12.9 nM
same,Kb,[2],32.7 ± 8.9 nM
same,"Antagonist δ, DPDPE Ke",[2]; vs DPDPE-stimulated [35S]GTPγS binding,32.7 nM
